Patent US9920357B2, “Systems and methods for identifying cosmetic agents for hair/scalp care compositions” (The Procter & Gamble Company, priority 2012, dated 2018)

Test system: hair growth

C#CCN(C)[C@H](C)Cc1ccccc1 [Selegiline]
activation of hair growth (alone): activate hair growth alone
increase of the hair growth activity of Minoxidil (in combination with Minoxidil): increase the hair growth activity of Minoxidil
